System: U87MG cells
Assay: Validation of intracellular ligation
Format: cell-based
Settings: control group: cells treated with colchicine before incubation with RGD-photo-ODIBO; UV irradiation

In the case of “Cetuximab-coumarin-N3: Cetuximab functionalized with coumarin-N3; mimics Cetuximab-TCO”, the “fluorescence signal under the FITC channel” value is reported as “no significant fluorescence signal”.

Source: article PMC8932640 (Advanced therapeutics, 2021)
